Literature values in publication PMC10761119, “Phosphorylation-state dependent intraneuronal sorting of Aβ differentially impairs autophagy and the endo-lysosomal system” (Autophagy, 2023).

Test system: Aβ degrading proteases
Settings: effect of phosphorylation of Aβ at Ser8; cited from earlier work

## amyloid-β phosphorylated at serine residue 8 [p-Ser8Aβ]
  Degradation by Aβ degrading proteases: strongly decreases its degradation
